Reference: the NIST ThermoML archive (doi:10.1016/j.fluid.2014.04.003)

Test: Molar enthalpy of transition or fusion
Details: Crystal; DSC

## CC(C)Cc1ccc([C@H](C)C(=O)O)cc1.CCCCCCCCNC[C@H](O)[C@@H](O)[C@H](O)[C@H](O)CO [S-ibuprofen n-octyl-d-glucamine salt]
  Molar enthalpy of transition or fusion: 16.2 ± 0.454 kcal/mol

± gives the expanded uncertainty stated by the source.
